Assay results reported in ChEMBL document CHEMBL4428027, “3-Hydroxypyrimidine-2,4-diones as Selective Active Site Inhibitors of HIV Reverse Transcriptase-Associated RNase H: Design, Synthesis, and Biochemical Evaluations” (J Med Chem, 2016).

Experiment: Selectivity index, ratio of IC50 for HIV integrase to IC50 for inhibition of RNase H activity of full length recombinant HIV1 reverse transcriptase

With `COc1ccc(-c2cccc(Nc3cc(=O)n(O)c(=O)[nH]3)c2)c(OC)c1` the Ratio IC50 was 3.9.
